Assay results reported in patent publication US20230302135A1.

Chains of the proteins cited; added tags and fusions are not shown. Chains listed by the source or under a name are the forms on record and can include a tag or linker. Residues count along the entry.
UniProt P48061, 22-89 limits assumed: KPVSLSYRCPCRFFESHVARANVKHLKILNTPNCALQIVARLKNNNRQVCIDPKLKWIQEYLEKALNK
hCXCR4/BMP2Rs-HAR (human), one chain, as listed by the source limits assumed: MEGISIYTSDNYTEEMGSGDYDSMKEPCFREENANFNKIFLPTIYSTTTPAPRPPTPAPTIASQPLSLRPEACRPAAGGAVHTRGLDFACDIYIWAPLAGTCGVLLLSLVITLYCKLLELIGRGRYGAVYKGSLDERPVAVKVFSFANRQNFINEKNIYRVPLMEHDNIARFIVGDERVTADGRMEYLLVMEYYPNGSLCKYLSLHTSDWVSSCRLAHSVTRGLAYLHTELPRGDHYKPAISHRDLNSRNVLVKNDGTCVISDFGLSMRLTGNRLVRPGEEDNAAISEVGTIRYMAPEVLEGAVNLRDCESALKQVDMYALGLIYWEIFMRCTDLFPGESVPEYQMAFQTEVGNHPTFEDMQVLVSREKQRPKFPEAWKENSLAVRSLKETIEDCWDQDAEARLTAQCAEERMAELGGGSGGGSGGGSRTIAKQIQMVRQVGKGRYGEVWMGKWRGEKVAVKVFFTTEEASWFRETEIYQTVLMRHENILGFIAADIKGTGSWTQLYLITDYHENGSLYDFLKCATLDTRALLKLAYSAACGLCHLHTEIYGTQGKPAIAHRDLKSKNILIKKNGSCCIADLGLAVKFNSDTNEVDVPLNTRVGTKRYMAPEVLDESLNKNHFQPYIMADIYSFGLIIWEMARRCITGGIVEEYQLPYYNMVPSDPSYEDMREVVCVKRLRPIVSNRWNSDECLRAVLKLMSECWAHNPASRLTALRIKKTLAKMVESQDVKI
hCXCR2/BMP2Rs-HAR (human), one chain, as listed by the source limits assumed: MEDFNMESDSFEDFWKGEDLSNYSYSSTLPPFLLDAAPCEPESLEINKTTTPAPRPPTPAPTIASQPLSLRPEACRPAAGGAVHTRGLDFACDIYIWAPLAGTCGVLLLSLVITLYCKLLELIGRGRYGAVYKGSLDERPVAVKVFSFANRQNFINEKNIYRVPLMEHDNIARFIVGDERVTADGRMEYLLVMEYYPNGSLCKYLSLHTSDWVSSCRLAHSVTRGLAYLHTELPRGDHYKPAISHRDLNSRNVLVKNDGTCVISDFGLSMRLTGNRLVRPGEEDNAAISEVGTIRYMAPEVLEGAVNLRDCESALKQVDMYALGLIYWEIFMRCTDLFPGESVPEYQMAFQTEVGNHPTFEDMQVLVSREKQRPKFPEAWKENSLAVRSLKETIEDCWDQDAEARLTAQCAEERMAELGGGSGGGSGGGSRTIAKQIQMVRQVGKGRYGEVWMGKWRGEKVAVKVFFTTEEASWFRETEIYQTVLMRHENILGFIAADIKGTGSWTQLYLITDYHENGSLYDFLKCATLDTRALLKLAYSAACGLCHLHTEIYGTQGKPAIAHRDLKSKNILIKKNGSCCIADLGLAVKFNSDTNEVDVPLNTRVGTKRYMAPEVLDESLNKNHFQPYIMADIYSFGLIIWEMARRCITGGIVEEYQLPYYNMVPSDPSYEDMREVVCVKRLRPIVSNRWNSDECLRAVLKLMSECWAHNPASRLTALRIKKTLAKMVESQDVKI

Tests used:
[1] = target: hCXCR2/BMP2Rs-HAR (human); experiment: flow cytometry of transfected hMSCs incubated with 20 ng/mL FITC-labeled SDF-1; printed label repeats hCXCR4/BMP2Rs-HAR, taken as a misprint for the hCXCR2/BMP2Rs-HAR control
[2] = target: hCXCR4/BMP2Rs-HAR (human); experiment: cell-based or functional assay

Row | percent of cells with FITC-conjugated SDF-1 detected [1] [%] | GATA4 mRNA (qRT-PCR), fold-change vs. control (none-engineered group) [2] [fold-change] | Nkx2.5 mRNA (qRT-PCR), fold-change vs. control (none-engineered group) [2] [fold-change] | cTnI mRNA (qRT-PCR), fold-change vs. control (none-engineered group) [2] [fold-change] | cTnT mRNA (qRT-PCR), fold-change vs. control (none-engineered group) [2] [fold-change] | expression of ALK3 (flow cytometry) [2] [%] | expression of cTnI protein (flow cytometry) [2] [%] | expression of cTnT protein (flow cytometry) [2] [%] | expression of phospho-Smad1/5 (flow cytometry) [2] [%] | Substance
1 | 15.3 |  |  |  |  |  |  |  |  | FITC-labeled recombinant human SDF-1 (from UniProt P48061 22-89) (ligand)
2 |  | 3.91 | 9.07 | 3.25 | 2.53 | 88.3 | 88.7 | 97.4 | 89.2 | stromal cell derived factor 1 (SDF-1, Peprotech) (from UniProt P48061 22-89) (ligand)
